This assay has as its target T1, TRAIL-R2 (human (endogenous in SK-Mel-3 and …, UniProt O14763)).
T1 construct: TRAIL-R2, death receptor on the surface of the melanoma cell line SK-Mel-3 and the colorectal cancer cell line HCT116; also called TNF-related apoptosis-inducing receptor 2; TRAIL DR
Kind of assay: equilibrium binding of Gaussia princeps luciferase fusion proteins to cells (luminescence); SK-Mel-3 cells in 24-well plates; increasing concentrations of the GpL fusion protein for 1 h at 37 °C; non-specific binding taken from cells pre-incubated with an excess of conventional TRAIL or conatumumab; one site specific binding model; isotonic and hypertonic conditions.

These results are taken from publication PMC6062497 (Oncogene, 2018).

B1: GpL-FLAG-conatumumab (antibody, V domains shown)
VH: QVQLQESGPGLVKPSQTLSLTCTVSGGSISSGDYFWSWIRQLPGKGLEWIGHIHNSGTTYYNPSLKSRVTISVDTSKKQFSLRLSSVTAADTAVYYCARDRGGDYYYGMDVWGQGTTVTVSS
VL: EIVLTQSPGTLSLSPGERATLSCRASQGISRSYLAWYQQKPGQAPSLLIYGASSRATGIPDRFSGSGSGTDFTLTISRLEPEDFAVYYCQQFGSSPWTFGQGTKVEIK
B1: the binding result was “binds”.
